Tests used:
HDAC3 = HDAC3 (Homo sapiens, UniProt O15379); assay: biochemical
[1] = system: pfuBARS control reporter (non-functional TCF elements), HEK-293T cells

Sequences of proteins named here, by UniProt entry; tags and fusion partners are left off. A change or cut given only in a name is not applied to a line headed by its entry.
UniProt O15379: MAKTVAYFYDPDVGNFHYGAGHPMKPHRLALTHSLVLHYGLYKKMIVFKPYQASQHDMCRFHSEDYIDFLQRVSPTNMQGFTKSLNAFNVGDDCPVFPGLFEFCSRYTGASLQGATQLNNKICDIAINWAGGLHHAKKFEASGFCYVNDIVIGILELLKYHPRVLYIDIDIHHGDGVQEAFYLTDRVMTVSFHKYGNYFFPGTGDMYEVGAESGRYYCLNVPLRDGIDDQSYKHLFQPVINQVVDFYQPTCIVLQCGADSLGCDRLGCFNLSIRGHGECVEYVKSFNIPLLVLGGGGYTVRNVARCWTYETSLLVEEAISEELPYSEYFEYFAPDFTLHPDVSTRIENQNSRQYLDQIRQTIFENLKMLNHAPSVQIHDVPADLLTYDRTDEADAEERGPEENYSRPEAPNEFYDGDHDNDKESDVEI

SMILES | IC50 (HDAC3) [µM] | activity in pfuBARS control reporter, compound alone ([1]; alone) | activity in pfuBARS control reporter in the presence of lithium ([1]; in the presence of lithium)
CCCC(CCC)C(=O)O [valproate] | 130 | – | –
O=C(CCCCCCC(=O)Nc1ccccc1)NO [SAHA] | – | no activity | no activity
